Data published in ChEMBL document CHEMBL1143494, “Synthesis and SAR of highly selective MMP-13 inhibitors” (Bioorg Med Chem Lett, 2005).

Biological target: Collagenase 3 (Homo sapiens, UniProt P45452)
Experiment: Inhibitory concentration against MMP-13

Compound	IC50 [nM]
CC(C)[C@H](NS(=O)(=O)c1ccc(-c2ccc(NC(=O)c3cc4ccccc4o3)cc2)cc1)C(=O)O	2.4
CC(C)[C@@H](NS(=O)(=O)c1ccc(-c2ccc(NC(=O)c3cc4ccccc4o3)cc2)cc1)C(=O)O	2.6
